## Antibody variant affinities, Ab-14 light chain, assay 1

Values reported by Engelhart et al. 2022, doi:10.1038/s41597-022-01779-4 (FLAb copy).

Binding partner: SARS-CoV-2 spike HR2 peptide, sequence PDVDLGDISGINAS.

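AAYL50 was designed without a model: most single CDR substitutions and a random sample of double and triple ones. AlphaSeq pools MATa yeast showing the antibodies with MATalpha yeast showing the peptide. Mating (16 h, 30 °C) was followed by selection of diploids and sequencing of their barcodes. Read counts were normalised to the haploid input and turned into Kd by a linear fit to BCL2-family pairs of known affinity, for each replicate. There are three technical replicates.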

Each scFv is VH, a (GGGGS)3 linker, VL, as in the parent Ab-14, and differs from it in the CDRs of the light chain only.
VH: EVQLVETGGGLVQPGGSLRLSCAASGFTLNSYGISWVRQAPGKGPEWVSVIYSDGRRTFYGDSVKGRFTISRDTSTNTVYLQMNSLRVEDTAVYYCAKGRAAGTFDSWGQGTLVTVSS
VL: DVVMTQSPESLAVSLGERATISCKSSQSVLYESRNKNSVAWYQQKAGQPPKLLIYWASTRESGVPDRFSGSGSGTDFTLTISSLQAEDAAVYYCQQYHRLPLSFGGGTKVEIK

Substitutions are numbered in sequence along the VL above, starting at 1 (not Kabat).
All variants listed here change V29 of the VL, counted from its first residue.
The read-out is the apparent dissociation constant on a log10 scale (nM): the lower, the stronger.
The mean shown is taken over the replicates in which the pair was detected.
A pair that was not seen in any replicate is written "no signal"; this usually means weak binding, but a binder can also be missed.
Empty control strains, which show no peptide, gave a signal in 18% of pairings with library AAYL50; the median was 4.19 and 95% of these signals were weaker than 2.99. No background was subtracted.

With S25F V29D Y31M the result was 0.30 (3 of 3 replicates). With V29N W56Q L102T the result was 5.60 (1 of 3 replicates). The variant S26D V29Y L100C gave no signal (0 of 3 replicates). The variant V29C A40K S62Y gave 4.16 (1 of 3 replicates). The variant V29Y Y31P Q96I showed 3.85 (3 of 3 replicates).

The variant Q27M V29H T59A gave 2.21 (3 of 3 replicates). The variant V29M L30G E61H showed 1.88 (3 of 3 replicates). For Q27M S28W V29W, the assay gave 1.72 (3 of 3 replicates). With K24W V29T W56V the result was 4.02 (3 of 3 replicates). With V29P R34D Q95D the result was 3.22 (1 of 3 replicates).

The variant S28G V29G S33R gave 1.63 (3 of 3 replicates). The variant V29I T59E gave 1.32 (3 of 3 replicates). For V29D R60F, the assay gave no signal (0 of 3 replicates). The variant V29R N35I E61Q gave 3.06 (1 of 3 replicates). For V29E V39Y H98T, the assay gave 3.84 (3 of 3 replicates).

The variant V29T L30P gave 0.59 (3 of 3 replicates). The variant V29R S58A showed 2.35 (3 of 3 replicates). For V29R N35P Q95F, the assay gave no signal (0 of 3 replicates). With V29M V39C T59P the result was 4.27 (1 of 3 replicates). For V29W Y31F A40H, the assay gave no signal (0 of 3 replicates).

For V29H R34M L102D, the assay gave 2.28 (1 of 3 replicates). The variant V29S K36S E61S gave 0.45 (3 of 3 replicates). The variant V29M E32Q S62L gave 1.20 (3 of 3 replicates). With V29W S38Q R60Y the result was no signal (0 of 3 replicates). The variant V29R gave no signal (0 of 3 replicates).

The variant V29P S33D Y97C showed no signal (0 of 3 replicates). The variant K24M V29G L102R gave 1.28 (3 of 3 replicates). The variant V29L E61W S103Q gave 1.70 (3 of 3 replicates). With K24L V29Y P101A the result was no signal (0 of 3 replicates). The variant V29K E61Q H98E gave no signal (0 of 3 replicates).

With Q27D V29D R99V the result was 1.55 (3 of 3 replicates).